Our source for the Km, kcat and kcat/Km values is ChEMBL document CHEMBL1151476, “Genetic and biochemical characterization of CAD-1, a chromosomally encoded new class A penicillinase from Carnobacterium divergens” (Antimicrob Agents Chemother, 2008).

In experiment [1] the test system is Carnobacterium divergens. The experiment is described as follows: Activity of Carnobacterium divergens BM4489 penicillinase Cad-1 assessed as initial rate of hydrolysis by spectrophotometer.
In experiment [2] the test system is Carnobacterium divergens. The experiment is described as follows: Ratio of Kcat to Km of Carnobacterium divergens BM4489 penicillinase Cad-1.
Experiment [3] has as its system Carnobacterium divergens. Kind of experiment: Ratio of Kcat to Km of Carnobacterium divergens BM4489 penicillinase Cad-1 relative to benzyl-penicillin.

Structures are written as SMILES.

Consider `CC(=O)OCC1=C(C(=O)O)N2C(=O)[C@@H](NC(=O)Cc3cccs3)[C@H]2SC1`, for which, in the experiment on Carnobacterium divergens [1], the Km worked out at 24 µM and the kcat was found to be 0.1 s⁻¹. For the same molecule, in the experiment on Carnobacterium divergens [2], the kcat/Km was found to be 4000 M⁻¹ s⁻¹. Besides, the kcat/Km in the experiment on Carnobacterium divergens [3] amounted to 0.06.

What is called Km is the concentration of substrate that gives half-maximal velocity. For orientation: kcat means the number of substrate molecules converted per active site and unit of time at saturation.
